How the values were obtained:
FRB/FKBP1A interaction = FRB/FKBP1A interaction (Homo sapiens, UniProt P42345+P62942); settings: NIN/IC format; Rapa 300 nM; replicates 1-4; ref previous study; cited from earlier work
[1] = biological target: Δ11S (third component of tri-part Nanoluciferase, tNLuc); assay: luminescence titration of tri-part NanoLuc complementation

CO[C@H]1C[C@@H]2CC[C@@H](C)[C@@](O)(O2)C(=O)C(=O)N2CCCC[C@H]2C(=O)O[C@H]([C@H](C)C[C@@H]2CC[C@@H](O)[C@H](OC)C2)CC(=O)[C@H](C)/C=C(\C)[C@@H](O)[C@@H](OC)C(=O)[C@H](C)C[C@H](C)/C=C/C=C/C=C/1C [rapamycin, Rapamycin]
ELISA_CIC signal (Fig. EV1C) (FRB/FKBP1A interaction): 124.999

β10-β9 tandem tNLuc peptide fused to recombinant protein G (C2 domain) and His tag
Kd [1]: 11.3 nM

Reference: paper PMC11791039 (2024)
